These are literature values, as cited in patent publication US20210315817A1, “C[…] SELF-EMULSION SYSTEMS FOR INFUSED COMPOSITIONS” (HEXO […]., priority 2018, published 2021).

For this data set the following is noted: individual emulsifier HLB value.

For “d-alpha-tocopherol polyethyleneglycol 1000 succinate [Vitamin E TPGS]”, the “Emuls. HLB” value was 8.00.
